One-dose inflammasome screen (PubChem AID 2061109, Seoul National University)
system: mouse macrophages from bone marrow, LPS + nigericin (NLRP3)
compound dose: 5 µM
value: % inhibition of cell death (propidium iodide), 0 = stimulated, 100 = untreated, floor at 0
*: called active, above 70% Part of the library is listed.

CN1CCC(S(=O)(=O)c2c(Cl)ccc(NC(=O)Nc3cccc(F)c3Cl)c2O)CC1
- inhibition: 0.0%

CCCCCCCCO
- inhibition: 0.0%

CN(Cc1cnc2nc(N)nc(N)c2n1)c1ccc(C(=O)N[C@@H](CCC(=O)O)C(=O)O)cc1
- inhibition: 33.4%

c1ccc2c(c1)CCO2
- inhibition: 68.4%

CCOC(=O)C[N+]1(C)CC[C@@H](OC(=O)[C@](O)(c2ccccc2)C2CCCC2)C1.[Br-]
- inhibition: 40.8%

Cc1cccc(CNc2ncnc3nc[nH]c23)c1O
- inhibition: 0.0%

O=C(C=Cc1ccc(O)c(O)c1)c1ccc(O)c(O)c1O
- inhibition: 72.7*%

O=C(Oc1ccc([N+](=O)[O-])cc1)N1CCC(C(O)(c2ccc3c(c2)OCO3)c2ccc3c(c2)OCO3)CC1
- inhibition: 70.4*%

CN(C)CCN(Cc1ccc(-c2ccc(CNCCc3ccccc3)cc2)cc1)C(=O)CCC1CCCC1.Cl.Cl
- inhibition: 78.0*%

CCS(=O)(=O)c1ccc(CC(=O)Nc2ccc(C(C)(C)C(=O)Nc3ccc(F)cc3F)c(F)c2)cc1
- inhibition: 0.0%

CC/C(=C(/c1ccc(OCCNC/C=C/C(=O)N(C)C)cc1)c1ccc2[nH]ncc2c1)c1ccccc1
- inhibition: 0.0%

O=C(NC(=O)c1c(F)cccc1F)Nc1ccc(Cl)cc1
- inhibition: 85.9*%

Cc1cccc(C2NC(=O)c3c(Cl)cccc3N2)c1
- inhibition: 0.0%

Cc1cc2c(C(C)C)c(O)c(O)c(C=O)c2c(O)c1-c1c(C)cc2c(C(C)C)c(O)c(O)c(C=O)c2c1O
- inhibition: 37.4%

CCCCC1(C2CCCC2)Cc2cc(OCCCC(=O)O)c(Cl)c(Cl)c2C1=O
- inhibition: 0.0%

COc1ccccc1-c1nc(=Nc2ccccc2)sn1-c1ccccc1OC
- inhibition: 0.0%

Cc1ccc(Sc2ccccc2N2CCNCC2)c(C)c1
- inhibition: 0.5%

COc1cc2c(cc1OC)-c1cc3ccc(OC)c(OC)c3c[n+]1CC2
- inhibition: 74.7*%

O=C(O)c1ccc(/C=C2\SC(=S)N(Cc3cccc(C(F)(F)F)c3)C2=O)cc1
- inhibition: 23.6%

COc1cc2nccc(Nc3cccc(Oc4ccccc4)c3)c2cc1OC
- inhibition: 75.5*%

O=S(=O)(Cc1ccccc1)N1C=Cc2ccccc2C1c1c[nH]c2ccccc12
- inhibition: 28.4%

CC(=O)SCC(Cc1ccccc1)C(=O)NCC(=O)OCc1ccccc1
- inhibition: 20.4%

Cl.Cl.OCCOCCN1CCN(C(c2ccccc2)c2ccccc2)CC1
- inhibition: 0.0%

COc1nc(C)ccc1-c1cc(Nc2cncc(O[C@@H]3CCCNC3)n2)n[nH]1
- inhibition: 16.5%

Cn1cc(-c2ccc3nnc(C(F)(F)c4ccc5ncccc5c4)n3n2)cn1
- inhibition: 69.2%

COc1ccc2c(c1)c1c(n2Cc2ccc(Cl)cc2)C(C)=NCC1
- inhibition: 74.5*%

Cn1cc2c3cc(C(=O)O)ccc3n(-c3ccc(C(F)(F)F)cc3)c2n1
- inhibition: 0.0%

O=C(O)CCc1c(C(=O)O)[nH]c2cc(Cl)cc(Cl)c12
- inhibition: 7.6%

CC(=O)NCCc1c(Cc2ccccc2)[nH]c2ccccc12
- inhibition: 15.3%

O=c1c(O[C@@H]2OC[C@H](O)[C@H](O)[C@H]2O)c(-c2ccc(O)c(O)c2)oc2cc(O)cc(O)c12
- inhibition: 62.0%

Cc1nccn1CC1CCc2c(c3ccccc3n2C)C1=O.Cl
- inhibition: 0.0%

Br.N#Cc1ccc(-c2csc(NN=C3CCCC3)n2)cc1
- inhibition: 0.0%

CC1(C)OC[C@@H](COC(=O)CCc2ccc(OC[C@@H](O)CNCCNC(=O)N3CCOCC3)cc2)O1.Cl
- inhibition: 74.3*%

CCOC(=O)[C@H](CCc1ccccc1)N[C@@H](C)C(=O)N1[C@H](C(=O)O)C[C@H]2CCCC[C@@H]21
- inhibition: 0.0%

O=C(Nc1ccccc1)N1CCC(Cc2cnc3ccccc3c2)CC1
- inhibition: 0.0%

Cl.Clc1cccc(-c2nnnn2Cc2cccnc2)c1Cl
- inhibition: 0.5%

Cl.Cl.c1cc(-c2nc3ccc(OCCCN4CCCC4)cc3o2)ccc1OCCCN1CCCC1
- inhibition: 0.0%

O=C(OCCO)c1ccc(NS(=O)(=O)c2cccc(-c3cc(F)ccc3O)c2)cc1O
- inhibition: 0.0%

Cc1c(CN2CCC(Nc3ncnc4sc(CC(F)(F)F)cc34)CC2)ccc2c1cc(C#N)n2Cc1cn[nH]c1
- inhibition: 0.0%

O=C(O[C@@H]1[C@@H](O)[C@H](Oc2cc(O)c(C(=O)CCc3ccccc3)c(O)c2)O[C@@H]2COC(=O)c3cc(O)c(O)c(O)c3-c3c(cc(O)c(O)c3O)C(=O)O[C@@H]12)c1cc(O)c(O)c(O)c1
- inhibition: 74.2*%

CO[C@H]1C[C@@H]2CC[C@@H](C)[C@@](O)(O2)C(=O)C(=O)N2CCCC[C@H]2C(=O)O[C@H]([C@H](C)C[C@@H]2CC[C@H](n3cnnn3)[C@H](OC)C2)CC(=O)[C@H](C)/C=C(\C)[C@@H](O)[C@@H](OC)C(=O)[C@H](C)C[C@H](C)/C=C/C=C/C=C/1C
- inhibition: 57.1%

CCOC(=O)N1c2ccc(C(F)(F)F)cc2[C@@H](N(Cc2cc(C(F)(F)F)cc(C(F)(F)F)c2)c2ncc(OCCCC(=O)O)cn2)C[C@H]1CC
- inhibition: 0.0%

Cc1cc(COc2ccc([C@]3(N)CCN([C@H](CC(C)C)C(=O)NO)C3=O)cc2)c2ccccc2n1
- inhibition: 0.0%

CCOC(=O)[C@H](CCc1ccccc1)N[C@@H](C)C(=O)N1CCC[C@H]1C(=O)O.O=C(O)/C=C\C(=O)O
- inhibition: 8.5%

CCOc1nc2cccc(C(=O)O)c2n1Cc1ccc(-c2ccccc2-c2noc(=O)[nH]2)cc1
- inhibition: 6.2%

C=CC(=O)Nc1cc(Nc2nccc(-c3cn(C4CC4)c4ccccc34)n2)c(OC)cc1N(C)CCN(C)C.CS(=O)(=O)O
- inhibition: 3.4%

Cc1cc(-c2ccccc2)nnc1NCCN1CCOCC1.Cl.Cl
- inhibition: 0.0%

CCC(C)n1ncn(-c2ccc(N3CCN(c4ccc(OC[C@H]5CO[C@](Cn6cncn6)(c6ccc(Cl)cc6Cl)O5)cc4)CC3)cc2)c1=O
- inhibition: 25.2%

CNC(=O)O[C@@H]1CCC[C@H]1[C@@]1(C2CCN(CC3CN(c4ccc(S(=O)(=O)c5ccncc5)cc4)C3)CC2)CN(C)Cc2ccccc21
- inhibition: 2.8%

NC(=O)[C@@H]1CC[C@H](c2ccc(OCc3ccccc3F)cc2)N1
- inhibition: 0.0%

O=c1[nH]c(=O)c2[nH]cnc2[nH]1
- inhibition: 0.0%

Cl.NCCc1cc(O)c(O)cc1O
- inhibition: 71.2*%

CC(COc1ccccc1)NC(C)C(O)c1ccc(O)cc1.Cl
- inhibition: 0.0%

CC[C@@](O)(C(=O)O)c1cc2n(c(=O)c1CO)Cc1cc3ccccc3nc1-2.[Na+]
- inhibition: 0.0%

NS(=O)(=O)c1ccc(S(=O)(=O)Nc2cccc3c(Cl)c[nH]c23)cc1
- inhibition: 58.4%

CS(=O)(=O)c1ccc(NC(=O)c2cc(C#N)c(Sc3c(Cl)cncc3Cl)s2)cc1
- inhibition: 48.5%

NC(=O)c1cnc(-c2ccc(C3(N)CCC3)cc2)c(-c2ccccc2)c1
- inhibition: 82.6*%

CC[C@@]1(O)C(=O)OCc2c1cc1n(c2=O)Cc2cc3c([N+](=O)[O-])cccc3nc2-1
- inhibition: 0.0%

COc1cccc(CN(C(=O)CC(C)(C)C)[C@H]2C[C@@H](C(=O)N3CCNCC3)N(Cc3ccc4c(c3)OCO4)C2)c1
- inhibition: 49.7%

C[C@@H](Nc1cc(F)cc(F)c1)c1cc(C(=O)N(C)C)cc2c(=O)cc(N3CCOCC3)oc12
- inhibition: 0.0%

C=CCc1cc(OC)c(O[C@@H](C)[C@H](O)c2ccc(O)c(OC)c2)c(OC)c1
- inhibition: 71.6*%

Cn1cc(-c2cn3nccc3c(-c3cnn(C4(CC#N)CC(C#N)C4)c3)n2)cn1
- inhibition: 67.3%

Oc1ccc2ccccc2c1N=Nc1nccs1
- inhibition: 0.0%

COc1cccc(-c2cn(-c3ccc(CCN4CCC(O)CC4)cc3)c3ncnc(N)c23)c1
- inhibition: 0.0%

COCc1ccc(NC(=O)c2c(C#CCN3CCOCC3)n(C3(C)CC3)c3ncnc(N)c23)cc1
- inhibition: 0.1%

C=CCNc1nc(NCC=C)nc(N2CCN(C(c3ccc(F)cc3)c3ccc(F)cc3)CC2)n1.CS(=O)(=O)O.CS(=O)(=O)O
- inhibition: 11.2%

Again, the opening 4 compounds:

compound	inhibition [%]
CN1CCC(S(=O)(=O)c2c(Cl)ccc(NC(=O)Nc3cccc(F)c3Cl)c2O)CC1	0.0
CCCCCCCCO	0.0
CN(Cc1cnc2nc(N)nc(N)c2n1)c1ccc(C(=O)N[C@@H](CCC(=O)O)C(=O)O)cc1	33.4
c1ccc2c(c1)CCO2	68.4